## scFv variants of Ab-14 (light chain) against a SARS-CoV-2 spike peptide

Antigen: PDVDLGDISGINAS, a 14-residue peptide of the SARS-CoV-2 spike HR2 region.

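Phage display of a naive human antibody library on the peptide gave the parent. These sequences belong to a second round, designed from the earlier measurements on random variants of the parent. Their group label is 14L_Ctrl (Ctrl: baseline library sampled from a position-specific scoring matrix, with some repeated check sequences). The scFvs were displayed on barcoded MATa yeast, the peptide on MATalpha yeast. Pairs that bind mate more often; barcode pairs of the diploids are counted by sequencing. Scores were corrected for input abundance and mapped to Kd with protein pairs of known affinity run in the same pool. The assay was run in six technical replicates.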

The variants keep the heavy chain, the linker and the frameworks of Ab-14 (scFv order VH, the linker GGGGSGGGGSGGGGS, VL).
VH: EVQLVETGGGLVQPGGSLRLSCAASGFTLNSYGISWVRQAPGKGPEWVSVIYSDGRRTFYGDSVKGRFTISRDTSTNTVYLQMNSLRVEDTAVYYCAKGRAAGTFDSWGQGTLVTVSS
VL: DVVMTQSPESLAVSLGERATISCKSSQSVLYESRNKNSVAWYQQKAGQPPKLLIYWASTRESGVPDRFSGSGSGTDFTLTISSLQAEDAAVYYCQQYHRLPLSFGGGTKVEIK

Sequences are complete VL domains. Affinities are written as log10 Kd with Kd in nM; a lower number is a better binder. Where no diploid with the target was found in that replicate, the entry reads "nd": below detection, most likely a poor binder, though not proof of it. Nonspecific signal, from three strains lacking the peptide, appeared in 4% of pairings of all light chain designs, centred on 2.64 (5% of these signals below 1.59); values are not corrected for it. For each scFv, signals with the empty controls are counted beside the result, with their mean in brackets. The range of this assay differs from that of the first round, and the authors advise against merging the two. The parent sequence was in this pool as ten entries: three were never detected, three once, and four in most replicates, with averages from 0.34 to 2.37. The authors averaged sequences with at least three values out of six and counted those with two or fewer as poor binders.

| VL | log10 Kd, replicates | signal with controls |
|---|---|---|
| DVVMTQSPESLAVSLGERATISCKSSQSVLYESRNKNSVAWYQQKAGQPPKLLIYSAATRESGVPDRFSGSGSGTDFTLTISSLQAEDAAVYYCQQQHRLPLSFGGGTKVEIK | nd / nd / nd / nd / nd / nd | 0/18 |
| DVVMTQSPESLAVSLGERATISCKSSQSVLYEDRNKPSVAWYQQKAGQPPKLLIYDASTRVSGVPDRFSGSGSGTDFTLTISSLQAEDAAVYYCQQYHRLPLSFGGGTKVEIK | 0.90 / 0.09 / 0.73 / 0.29 / 0.60 / 0.73 | 2/18 (2.31) |
| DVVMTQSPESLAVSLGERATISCKSSQSVVYESRNKNSVAWYQQKAGQPPKLLIYASSTRESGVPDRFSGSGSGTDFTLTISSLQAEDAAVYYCQQYHMLPLAFGGGTKVEIK | 1.10 / 0.66 / 1.56 / 0.77 / 0.82 / 1.13 | 2/18 (2.23) |
| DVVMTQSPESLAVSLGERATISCKSGQSVLYESNNKNSVAWYQQKAGQPPKLLIYSASTRFSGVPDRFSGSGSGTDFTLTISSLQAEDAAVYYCQQYHRLPLSFGGGTKVEIK | 0.81 / 0.53 / 0.53 / 0.30 / 0.54 / 0.56 | 0/18 |
| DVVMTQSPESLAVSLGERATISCRSSQSVLYESRNKNGVAWYQQKAGQPPKLLIYWAKTRESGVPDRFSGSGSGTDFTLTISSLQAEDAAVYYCKQYHWLYLSFGGGTKVEIK | nd / nd / nd / nd / nd / nd | 0/18 |
| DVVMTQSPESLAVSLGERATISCKLSQSVLYESRNKNSVAWYQQKAGQPPKLLIYWASTRESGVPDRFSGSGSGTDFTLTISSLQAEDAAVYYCQQYHRLVLSFGGGTKVEIK | nd / nd / nd / nd / nd / nd | 0/18 |
| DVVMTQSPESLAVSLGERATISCKSSQQVLYESRNKNSVAWYQQKAGQPPKLLIYWASTREKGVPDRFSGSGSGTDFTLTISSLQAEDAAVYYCQQYHSLPLSFGGGTKVEIK | nd / nd / nd / nd / nd / nd | 1/18 (1.80) |
| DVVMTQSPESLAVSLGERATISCKSSQSVLYESENKNSVAWYQQKAGQPPKLLIYWCSTRESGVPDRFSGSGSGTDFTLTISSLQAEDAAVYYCQQYHRLPLSFGGGTKVEIK | nd / 2.14 / nd / 2.80 / nd / nd | 0/18 |
| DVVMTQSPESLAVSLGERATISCKSSYSVLYESRNKNSVAWYQQKAGQPPKLLIYWASTRESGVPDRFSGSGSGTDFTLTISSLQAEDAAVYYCFQGHRLPLSFGGGTKVEIK | nd / nd / nd / nd / nd / nd | 0/18 |
| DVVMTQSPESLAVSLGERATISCKSPQSVLYESRNKNSVAWYQQKAGQPPKLLIYDASTRVSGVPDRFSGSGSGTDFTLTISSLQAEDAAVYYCQQYHRLPLSFGGGTKVEIK | -0.17 / -0.39 / -0.20 / -0.25 / -0.42 / 0.07 | 1/18 (1.29) |
| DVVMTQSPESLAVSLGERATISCKLSQSFLYESTNKNSVAWYQQKAGQPPKLLIYWASTRESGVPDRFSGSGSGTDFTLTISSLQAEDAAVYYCQQKHRLPLSFGGGTKVEIK | 1.37 / 1.12 / 1.22 / 1.91 / 1.15 / 1.75 | 1/18 (1.94) |
| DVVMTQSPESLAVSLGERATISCKSEQSVLYESRNKNSVAWYQQKAGQPPKLLIYAASTRESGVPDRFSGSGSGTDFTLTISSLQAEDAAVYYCQQYHRLPLSFGGGTKVEIK | 0.31 / 0.28 / 0.14 / 0.00 / -0.05 / 0.12 | 1/18 (1.66) |
| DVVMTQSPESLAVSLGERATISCKSSQSVGYESRCKNSVAWYQQKAGQPPKLLIYSASTRESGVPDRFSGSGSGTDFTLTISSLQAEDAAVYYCQQYHRLPLSFGGGTKVEIK | 1.44 / 1.36 / 1.07 / 1.15 / 1.03 / 1.33 | 0/18 |
| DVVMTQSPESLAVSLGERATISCKSSTSVLYESRLKNSVAWYQQKAGQPPKLLIYWASTRESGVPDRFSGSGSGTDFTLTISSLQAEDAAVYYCQQYHRLPLSFGGGTKVEIK | nd / nd / nd / nd / nd / nd | 0/18 |
| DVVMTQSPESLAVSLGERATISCKSSRSVLHESRNTNSVAWYQQKAGQPPKLLIYAASTRESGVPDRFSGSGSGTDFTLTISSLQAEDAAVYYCQQYHRLPLSFGGGTKVEIK | 1.44 / 2.31 / 1.14 / 1.25 / 1.80 / 1.34 | 0/18 |
| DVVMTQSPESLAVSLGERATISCSSSQSVPYESGNKNSVAWYQQKAGQPPKLLIYWASTRESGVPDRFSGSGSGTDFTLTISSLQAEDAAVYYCQQYHRLPLSFGGGTKVEIK | 2.04 / 1.37 / 1.65 / 2.81 / 1.57 / 2.59 | 0/18 |

2 of these entries, quoted again:

{"VL": "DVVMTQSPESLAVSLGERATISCKSSTSVLYESRLKNSVAWYQQKAGQPPKLLIYWASTRESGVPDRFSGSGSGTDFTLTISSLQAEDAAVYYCQQYHRLPLSFGGGTKVEIK", "log10 Kd, replicates": "nd / nd / nd / nd / nd / nd", "signal with controls": "0/18"}
{"VL": "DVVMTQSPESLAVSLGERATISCKSSYSVLYESRNKNSVAWYQQKAGQPPKLLIYWASTRESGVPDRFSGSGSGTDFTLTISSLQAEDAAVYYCFQGHRLPLSFGGGTKVEIK", "log10 Kd, replicates": "nd / nd / nd / nd / nd / nd", "signal with controls": "0/18"}

Data: MIT Lincoln Laboratory AlphaSeq set, Li et al. 2023, doi:10.1038/s41467-023-39022-2, as distributed in FLAb.